One data set concerns advanced HCC. As to the kind of experiment: Phase 1b tumour response per RECIST v1.1. In kind it is in vivo, human. The method, then:
In Phase 2, the primary endpoint was independent review committee (IRC)-assessed time to progression (TTP) per Response Evaluation Criteria in Solid Tumors (RECIST) v1.1. Secondary endpoints included investigator-assessed TTP, IRC- and investigator-assessed progression-free survival (PFS), objective response rate (ORR), disease control rate, OS and safety. In both phases, tumour assessments were performed according to RECIST v1.1 based on scans taken at the end of every second cycle until Cycle 13, and every four cycles thereafter.

In data set [1] the test system is Asian patients with advanced HCC. The data set can be described thus: Phase 1b dose escalation: DLTs and adverse events.

Structures can show the parent of a compound that is named as a salt.

The source of these data is article PMC8292411 (British Journal of Cancer, 2021).

In the case of `CN1CCC(COc2cnc(-c3cccc(Cn4nc(-c5cccc(C#N)c5)ccc4=O)c3)nc2)CC1` [Tepotinib, tepotinib hydrochloride hydrate], the disease control rate in the data set on advanced HCC (Phase 1b, 500 mg cohort) is reported as 50%; with advanced HCC (Phase 1b, 1,000 mg cohort) it was 50%. The “patients with Grade ≥3 AEs of any cause” value in data set [1] is 55.6%.
